{
  "source": "PubChem BioAssay AID493014",
  "about": "(National Center for Advancing Translational Sciences (NCATS), 2011)",
  "note": "Hit rate of the full screen: of about 340,000 compounds, about 170 (0.05%) were called active. Only results without a clear call are listed here; the source files them as inconclusive. The call rests on the fitted dose curve; in most records, active means well fitted inhibition curve with a large enough effect in the signal ratio, with a control signal flat (not every such curve was filed as active); inconclusive means small, poorly fitted or top-dose-only effect, or effect the other way, or a change in a side signal; inactive means flat fitted curve, though single readings scatter; the % refers to the signal ratio. Potency means the concentration at half of the fitted maximal effect.",
  "data": [
    {"assay": "qHTS Assay to Find Inhibitors of Chronic Active B-Cell Receptor Signaling", "conditions": "ABC-DLBCL IkBa-CBG/CBR reporter, luminescence ratio (green luciferase fused to IkBa over red control in TMD8 lymphoma cells), 4 h; activity change, negative = inhibition: at 46.1 µM (top of the series)", "source_text": "NIH Molecular Libraries Probe Production Network [MLPCN] NIH Chemical Genomics Center [NCGC] MLPCN Grant: 1 R03 DA031086-01A1 PI Name: Dr. R. Eric Davis NCGC Assay Overview: Diffuse large B-cell lymphoma (DLBCL) is the most common category of non-Hodgkin lymphoma, with ~20,000 new cases per year in the United States. DLBCL should be regarded as a collection of different neoplasms. Microarray gene expression analysis has defined two principal types of DLBCL, named for their similarity to normal B cell stages or activation states: a germinal center B-cell (GCB) type, and an activated B-cell (ABC) type. In ABC-DLBCL, a constitutive high-level activity of the NF-kappaB family of transcription factors has been observed (1) and NF-kappaB target genes are more highly expressed in ABC primary tumors than in GCB tumors. Functional studies have shown a constitutive high-level activity of the IkappaB (inhibitor of kappa-B) kinase (IKK) complex. […] Further analysis of DLBCL primary tumors for NF-kappaB target gene expression imply that although CARD11 is required for constitutive IKK activity in all ABC-DLBCL lines, mutations in CARD11 may be the root cause of IKK activation only in lines or tumors with such mutations. In other words, CARD11 mutations may explain NF-kappaB activation in only 10% of ABC-DLBCL cases. […] This process has been termed 'chronic active BCR signaling' (CABS). The goal of this screen is to find small-molecule inhibitors of the CABS pathway found in ABC-DLBCL lines using a cell-based assay that measures IkappaBalpa stability, which has already been extensively validated in the OCI-Ly3 line (PubChem AID:445; REF: 4). […] The assay uses green (CBG68) and red (CBR) emitting beetle luciferases [Chroma-GloTM developed by Promega Corp.] where the green luciferase is fused to IkappaBalpha and the red luciferase is present in its native state. Both luciferase genes are stably present in the TMD8 human ABC DLBCL cell line, but their expression is under the control of tetracycline-inducible promoters. Following the addition of doxycycline to induce expression of the luciferases, the green luminescence in control cultures rises only slowly because the CBG fusion partner IkappaBalpha is targeted by IKK activity for rapid degradation. In contrast, green luminescence rises rapidly in the presence of proteasome inhibitors or IKK inhibitors. The rise in red luminescence of CBR is not affected by proteasome or IKK inhibitors, and serves as normalization for cell number and nonspecific effects. Compounds were screened as a concentration-titration series that ranged from 46 uM to 3 nM.\nNCGC Assay Protocol Summary: Cells were seeded in 1536-well plates at 5000 cells/4uL in IMDM medium containing 0.5% FBS, w/o phenol red, 1% penicillin/streptomycin. Then, 23 nL of compounds or DMSO were delivered to each well using a pin tool. One uL 20ng/ml doxycycline was then dispensed into white solid 1536-well plates and the plates were incubated at 37C/5% C02 in a cell incubator for 4 hrs. Then 4 uL luminescent substrate mix (in-house prepared: 150 mM Tris-Cl, pH 7.6, 3 mM MgCl2, 1% Triton X-100, 5 mM DTT, 0.2 mM CoA, 0.15 mM ATP, 5 mM D-luciferin, final concentrations) was added to each well. The plate was incubated at r.t. for 10-15 min. The plates were measured on a ViewLux plate reader for green luminescence (540/20 nm filter) and red luminescence (618/8 nm filter). The green and red luminescent signals were corrected for red and green luminescence filter overlap using previously determined filter calibration constants (determined using the procedure outlined in the Promega Technical Manual; REF 4). The %Activity was determined from the ratio of corrected green/red luminescent values. MG132 were used as control. […] Red luminescent %Activity was normalized to the difference between red luminesence in basal cells (0%Activity) and zero luminescence (-100% Activity). […]", "values": [
      {"compound": "Oc1ccccc1CNc1ccccn1", "Potency": "inconclusive: 18.4 µM"},
      {"compound": "Cc1c2non([O-])c-2c(C)[n+](=O)[n+]1[O-]", "Potency": "inconclusive: 6.31 µM"},
      {"compound": "Nc1cc(N)c2nonc2c1[N+](=O)[O-]", "activity change, negative = inhibition": "inconclusive: -6.58%"},
      {"compound": "CN1CCCC(OC(=O)C(c2ccccc2)c2ccccc2)C1", "note": "(stereo unspecified)", "Potency": "inconclusive: 4.61 µM"},
      {"compound": "O=[N+]([O-])c1cc([N+](=O)[O-])c(CCN2CCOCC2)c([N+](=O)[O-])c1", "activity change, negative = inhibition": "inconclusive: -45.3%"},
      {"compound": "CCOP(=O)(Nc1ccccc1)OCC", "activity change, negative = inhibition": "inconclusive: 0.741%"},
      {"compound": "Cc1ccc(NP(=O)(Oc2ccccc2F)Oc2ccccc2F)nc1", "activity change, negative = inhibition": "inconclusive: 7.2%"},
      {"compound": "O=C(O)c1ccccc1[As](=O)(O)O", "activity change, negative = inhibition": "inconclusive: 4.83%"},
      {"compound": "O=C(Nc1cc([As](=O)(O)O)ccc1O)c1ccccc1", "activity change, negative = inhibition": "inconclusive: 0.529%"},
      {"compound": "O=[N+]([O-])c1cc([N+](=O)[O-])c(CCNc2ccccc2)c([N+](=O)[O-])c1", "activity change, negative = inhibition": "inconclusive: 14.4%"},
      {"compound": "CCc1nc2c(n1)c1c(non1O)c1c2no[n+]1[O-]", "activity change, negative = inhibition": "inconclusive: -0.326%"},
      {"compound": "COc1ccc(C2=NCC(CBr)S2)cc1", "note": "(stereo unspecified)", "Potency": "inconclusive: 11.2 µM"},
      {"compound": "C(Cc1nn[nH]n1)Cc1nn[nH]n1", "activity change, negative = inhibition": "inconclusive: 3.01%"},
      {"compound": "CC(=O)NC(SC(=S)N(C)C)C(Cl)(Cl)Cl", "note": "(stereo unspecified)", "Potency": "inconclusive: 29.1 µM"},
      {"compound": "O=[N+]([O-])c1ccc(O)c(/C=N/Nc2ccc([N+](=O)[O-])cc2[N+](=O)[O-])c1", "activity change, negative = inhibition": "inconclusive: 1.52%"},
      {"compound": "O=C(NC1CCS(=O)(=O)C1)NP(=S)(Oc1ccccc1)Oc1ccccc1", "note": "(stereo unspecified)", "activity change, negative = inhibition": "inconclusive: -0.81%"},
      {"compound": "C=C(CO)CC1CC(O)[C@]2(C)OC3CC4OC5C[C@]6(C)O[C@]7(C)CCC8OC9C[C@]%10(C)OC%11C(C)=CC(=O)OC%11CC%10OC9C[C@@H](C)C8OC7CC6O[C@]5(C)C/C=C\\C4OC3CC2O1", "note": "(stereo partly specified)", "activity change, negative = inhibition": "inconclusive: 0.263%"},
      {"compound": "C[C@H]1OP(=O)(Oc2ccccc2)C[C@@H]2O[C@@H]21", "note": "(stereo partly specified)", "activity change, negative = inhibition": "inconclusive: -29.6%"},
      {"compound": "O=P1(Nc2nc3ccc(Cl)cc3s2)COc2ccccc2O1", "note": "(stereo unspecified)", "activity change, negative = inhibition": "inconclusive: 3.17%"},
      {"compound": "CCOc1ccc(C2=NCC(CBr)S2)cc1", "note": "(stereo unspecified)", "activity change, negative = inhibition": "inconclusive: -14.9%"},
      {"compound": "CCOP(=O)(Nc1cccc2ccccc12)OCC", "activity change, negative = inhibition": "inconclusive: -1.24%"},
      {"compound": "O=[As](O)(c1cccc(O)c1)c1cccc(O)c1", "activity change, negative = inhibition": "inconclusive: 2.93%"},
      {"compound": "O=P1(Nc2ncccn2)COc2ccccc2OC1", "activity change, negative = inhibition": "inconclusive: 16.4%"},
      {"compound": "O=P1(Nc2ccccn2)COc2ccccc2OC1", "activity change, negative = inhibition": "inconclusive: 6.53%"},
      {"compound": "CCOP(=O)(Nc1ccc(C)cn1)OCC", "activity change, negative = inhibition": "inconclusive: 3.26%"},
      {"compound": "CC(C)NC(=O)NP(=O)(Oc1ccccc1)Oc1ccccc1", "activity change, negative = inhibition": "inconclusive: -15.9%"},
      {"compound": "O=[N+]([O-])c1cc([N+](=O)[O-])c(-c2ccn[nH]2)s1", "activity change, negative = inhibition": "inconclusive: 0.929%"},
      {"compound": "ClCCSc1nnc(-c2cccnc2)o1", "activity change, negative = inhibition": "inconclusive: 18.1%"},
      {"compound": "Cc1ccc(OP(=O)(Nc2ccc([N+](=O)[O-])cn2)Oc2ccc(C)cc2)cc1", "activity change, negative = inhibition": "inconclusive: -3.09%"},
      {"compound": "COc1cc(I)ccc1[As](=O)(O)O", "Potency": "inconclusive: 12.6 µM"},
      {"compound": "Cc1c2c(nc3ccccc13)SC(C(Cl)Cl)C2", "note": "(stereo unspecified)", "activity change, negative = inhibition": "inconclusive: 14.9%"}
    ]}
  ]
}
